Laboratory results published in patent publication US10010612B2, “Sustained delivery formulations of risperidone compounds” (Indivior UK Limited, priority 2007, dated 2018).

Conditions: limit of solubility

Cc1nc2n(c(=O)c1CCN1CCC(c3noc4cc(F)ccc34)CC1)CCCC2 [Risperidone, 4-[2-[4-(6-fluorobenzo[d]isoxazol-3-yl)-1-piperidyl]ethyl]-3-methyl-2,6-diazabicyclo[4.4.0]deca-1,3-dien-5-one]
solubility in ethyl lactate: ≤ 7.5 % by weight
